Experimental findings from patent US9708315B2, “1,2,4-triazolo[4,3-a]pyridine compounds and their use as positive allosteric modulators of MGLUR2 receptors” (Janssen Pharmaceutica NV, priority 2013, dated 2017) are described below.

Amino acid sequences for entries named in this document (tags omitted). Residues count along the entry.
UniProt Q14416, 19-872: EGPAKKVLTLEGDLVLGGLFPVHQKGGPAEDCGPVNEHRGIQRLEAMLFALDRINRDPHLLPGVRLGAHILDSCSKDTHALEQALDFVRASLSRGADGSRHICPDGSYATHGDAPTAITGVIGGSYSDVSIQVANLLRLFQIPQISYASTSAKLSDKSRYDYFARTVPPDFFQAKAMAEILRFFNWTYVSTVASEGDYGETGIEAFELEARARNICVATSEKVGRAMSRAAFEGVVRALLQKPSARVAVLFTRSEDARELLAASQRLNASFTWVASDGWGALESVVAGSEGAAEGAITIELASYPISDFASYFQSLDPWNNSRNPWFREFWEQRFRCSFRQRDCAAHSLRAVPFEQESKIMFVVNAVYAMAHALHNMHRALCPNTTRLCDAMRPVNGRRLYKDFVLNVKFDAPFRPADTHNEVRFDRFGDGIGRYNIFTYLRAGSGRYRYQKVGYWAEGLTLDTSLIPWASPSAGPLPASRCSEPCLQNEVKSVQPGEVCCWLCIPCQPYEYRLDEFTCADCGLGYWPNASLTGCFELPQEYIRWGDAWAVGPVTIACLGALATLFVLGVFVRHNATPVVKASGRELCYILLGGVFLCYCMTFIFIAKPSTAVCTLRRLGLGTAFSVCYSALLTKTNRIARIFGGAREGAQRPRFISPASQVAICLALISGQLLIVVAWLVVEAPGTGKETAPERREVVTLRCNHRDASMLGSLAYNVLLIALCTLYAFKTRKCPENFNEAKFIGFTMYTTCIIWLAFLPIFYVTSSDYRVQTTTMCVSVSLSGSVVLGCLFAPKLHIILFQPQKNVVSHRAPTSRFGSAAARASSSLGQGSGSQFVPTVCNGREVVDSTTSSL

In this test the target is T1, human mGlu2 receptor (Homo sapiens, UniProt Q14416).
T1 construct: expressed in transfected cells; host or cells: CHO cells
The test can be described thus: [35S]GTPγS binding assay, mGluR2 PAM. It is filed as biochemical. The settings on record: for EC50: EC50 expressed in M; for Emax: read-out: GTPγS - hmGluR2 PAM Emax, maximal % effect relative to the control glutamate response. On the procedure:
[^35S]GTPγS Binding Assay
The [^35S]GTPγS binding assay is a functional membrane-based assay used to study G-protein coupled receptor (GPCR) function whereby incorporation of a non-hydrolysable form of GTP, [^35S]GTPγS (guanosine 5′-triphosphate, labelled with […] ^35S), is measured.
Cells were then collected by scraping in PBS and cell suspension was centrifuged (10 min at 4000 RPM in benchtop centrifuge). Supernatant was discarded and pellet gently resuspended in 50 mM Tris-HCl, pH 7.4 by mixing with a vortex and pipetting up and down. The suspension was centrifuged at 16,000 RPM (Sorvall RC-5C plus rotor SS-34) for 10 minutes and the supernatant discarded. The pellet was homogenized in 5 mM Tris-HCl, pH 7.4 using an ultra-turrax homogenizer and centrifuged again (18,000 RPM, 20 min, 4° C.). The final pellet was resuspended in 50 mM Tris-HCl, pH 7.4 and stored at −80° C. in appropriate aliquots before use. Protein concentration was determined by the Bradford method (Bio-Rad, USA) with bovine serum albumin as standard.
Measurement of mGluR2 positive allosteric modulatory activity of test compounds was performed as follows. Test compounds and glutamate were diluted in assay buffer containing 10 mM HEPES acid, 10 mM HEPES salt, pH 7.4, 100 mM NaCl, 3 mM MgCl2 and 10 μM GDP. Human mGlu2 receptor-containing membranes were thawed on ice and diluted in assay buffer supplemented with 14 μg/ml saponin. Membranes were pre-incubated with compound alone or together with a predefined (˜EC20) concentration of glutamate (PAM assay) for 30 min at 30° C. After addition of [^35S]GTPγS (f c. 0.1 nM), assay mixtures were shaken briefly and further incubated to allow [^35S]GTPγS incorporation on activation (30 minutes, 30° C.). Final assay mixtures contained 7 μg of membrane protein in 10 mM HEPES acid, 10 mM HEPES salt, pH 7.4, 100 mM NaCl, 3 mM MgCl2, 10 μM GDP and 2 μg/ml saponin. […] Filters were washed 6 times with ice-cold 10 mM NaH2PO4/10 mM Na2HPO4, pH 7.4. Filters were then air-dried, and 40 μl of liquid scintillation cocktail (Microscint-O) was added to each well. Membrane-bound radioactivity was counted in a Microplate Scintillation and Luminescence Counter from Perkin Elmer.
The concentration-response curves of representative compounds of the present invention—obtained in the presence of EC20 of mGluR2 agonist glutamate to determine positive allosteric modulation (PAM)—were generated using the Lexis software interface (developed at J&J). Data were calculated as % of the control glutamate response, defined as the maximal response that is generated upon addition of glutamate alone. Sigmoid concentration-response curves plotting these percentages versus the log concentration of the test compound were analyzed using non-linear regression analysis. The concentration producing half-maximal effect is then calculated as EC50.
The pEC50 values below were calculated as the −log EC50, when the EC50 is expressed in M. Emax is defined as relative maximal effect (i.e. maximal % effect relative to the control glutamate response).
All compounds were tested in presence of mGluR2 agonist glutamate at a predetermined EC20 concentration, to determine positive allosteric modulation. pEC50 values were calculated from a concentration-response experiment of at least 8 concentrations.

Setting [1] is: GTPγS - hmGluR2 PAM pEC50, in presence of glutamate at EC20.
Setting [2] is: in presence of glutamate at EC20, read-out: GTPγS - hmGluR2 PAM pEC50 (converted).

For orientation: Emax means the size of the effect at its maximum, as opposed to the concentration needed.

Read-outs that look alike come from different tables or passages of the source.

On to `CCc1nnc2c(C(F)(F)F)c(C(C)Oc3c(F)cc(F)cc3F)ccn12` (single isomer, unassigned) [Compound 29, 3-Ethyl-8-(trifluoromethyl)-7-[(1*S)-1-(2,4,6-trifluorophenoxy)ethyl]-[1,2,4]triazolo[4,3-a]pyridine], for which the EC50 under setting [1] is 1410 nM.

For the compound `CCc1nnc2c(C(F)(F)F)c(C(C)Oc3c(F)cc(F)cc3F)ccn12` (single isomer, unassigned) [Compound 28, 3-Ethyl-8-(trifluoromethyl)-7-[(1*R)-1-(2,4,6-trifluorophenoxy)ethyl]-[1,2,4]triazolo[4,3-a]pyridine], the EC50 under setting [1] is 64.6 nM.

Regarding `CCc1nnc2c(C(F)(F)F)c(C(C)Oc3ccc(F)cc3F)ccn12` (centres unmarked) [Compound 24, 7-[1-(2,4-Difluorophenoxy)ethyl]-3-ethyl-8-(trifluoromethyl)[1,2,4]triazolo[4,3-a]pyridine], under setting [2], the EC50 is 380 nM.

Regarding `CCc1nnc2c(C(F)(F)F)c(C(C)Oc3ccc(F)cc3F)ccn12` (single isomer, unassigned) [Compound 26, 7-[(1*R)-1-(2,4-Difluorophenoxy)ethyl]-3-ethyl-8-(trifluoromethyl)[1,2,4]triazolo[4,3-a]pyridine], the EC50 under setting [2] is 166 nM. Further, the Emax (glutamate at EC20) worked out at 214%.

For `CCc1nnc2c(C(F)(F)F)c(C(C)Oc3c(F)cc(F)cc3F)ccn12` (centres unmarked) [Compound 25, 3-Ethyl-8-(trifluoromethyl)-7-[1-(2,4,6-trifluorophenoxy)ethyl][1,2,4]triazolo[4,3-a]pyridine], the EC50 under setting [1] is 126 nM. The Emax (glutamate at EC20) was 233%.

Consider `CCc1nnc2c(C(F)(F)F)c(C(C)Oc3ccc(F)cc3F)ccn12` (single isomer, unassigned) [Compound 27, 7-[(1*S)-1-(2,4-Difluorophenoxy)ethyl]-3-ethyl-8-(trifluoromethyl)[1,2,4]triazolo[4,3-a]pyridine], for which the “GTPγS - hmGluR2 PAM Emax” value (maximal % effect relative to the control glutamate response, glutamate at EC20) was found to be 51%.
